Measured values taken from ChEMBL document CHEMBL4007395 (J Med Chem, 2017).

Assay: clinical
Conditions: human, in vivo, po, 10 mg

In the case of CC(C)c1c(C(=O)Nc2ccccc2)c(-c2ccccc2)c(-c2ccc(F)cc2)n1CC[C@@H](O)C[C@@H](O)CC(=O)O [ATORVASTATIN], the Cmax was 2.81 ng/mL.
